biological target: Beta-3 Adrenergic Receptor (Homo sapiens, UniProt P13945); assay: Homogeneous Time-Resolved Fluorescence (HTRF) cAMP antagonist assay; format: cell-based; conditions: specific IC50 values listed in text, CHO-K1 cells, isoproterenol at EC90

Amino acid sequences for entries named in this document (tags omitted).
UniProt P13945, whole entry: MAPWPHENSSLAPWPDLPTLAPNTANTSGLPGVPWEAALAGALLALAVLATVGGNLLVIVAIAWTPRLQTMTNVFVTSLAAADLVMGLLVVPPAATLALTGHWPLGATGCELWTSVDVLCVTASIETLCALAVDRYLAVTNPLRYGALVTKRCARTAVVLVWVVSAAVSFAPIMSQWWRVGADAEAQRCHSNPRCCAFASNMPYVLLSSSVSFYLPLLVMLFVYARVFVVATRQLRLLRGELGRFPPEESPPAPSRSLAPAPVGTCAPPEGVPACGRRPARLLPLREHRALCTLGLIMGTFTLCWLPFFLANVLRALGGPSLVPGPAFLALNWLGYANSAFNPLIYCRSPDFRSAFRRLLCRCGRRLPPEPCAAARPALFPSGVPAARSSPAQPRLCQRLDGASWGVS

IC50 [nM]	Compound
15.8	CCOc1ccc(-c2ccc(CN)cc2)cc1S(=O)(=O)N1CCC2(CC1)C[C@@H](NC[C@H](O)COc1cccc(S(=O)(=O)C3CC3)c1)CO2
29.4	CCN1CCOc2ncc(S(=O)(=O)N3CCC4(CC3)C[C@@H](NC[C@H](O)COc3cccc(S(=O)(=O)C5CC5)c3)CO4)cc21
84.6	NCc1ccc(-c2cccc(S(=O)(=O)N3CCC4(CC3)C[C@@H](NC[C@H](O)COc3cccc(S(=O)(=O)CC(N)=O)c3)CO4)c2)cc1

Reference: patent US20240358689A1, “Modulators Of The Beta-3 Adrenergic Receptor Useful For The Treatment Or Prevention Of Renal Cystic Disease and Cardiorenal Syndrome” (Arena Pharmaceuticals, Inc., priority 2021, published 2024)
